Assay results taken from paper PMC5947877 (Phytomedicine : international journal of phytotherapy and …, 2017).

Sequences of proteins named here, by UniProt entry; tags and fusion partners are left off.
UniProt P21397, whole entry: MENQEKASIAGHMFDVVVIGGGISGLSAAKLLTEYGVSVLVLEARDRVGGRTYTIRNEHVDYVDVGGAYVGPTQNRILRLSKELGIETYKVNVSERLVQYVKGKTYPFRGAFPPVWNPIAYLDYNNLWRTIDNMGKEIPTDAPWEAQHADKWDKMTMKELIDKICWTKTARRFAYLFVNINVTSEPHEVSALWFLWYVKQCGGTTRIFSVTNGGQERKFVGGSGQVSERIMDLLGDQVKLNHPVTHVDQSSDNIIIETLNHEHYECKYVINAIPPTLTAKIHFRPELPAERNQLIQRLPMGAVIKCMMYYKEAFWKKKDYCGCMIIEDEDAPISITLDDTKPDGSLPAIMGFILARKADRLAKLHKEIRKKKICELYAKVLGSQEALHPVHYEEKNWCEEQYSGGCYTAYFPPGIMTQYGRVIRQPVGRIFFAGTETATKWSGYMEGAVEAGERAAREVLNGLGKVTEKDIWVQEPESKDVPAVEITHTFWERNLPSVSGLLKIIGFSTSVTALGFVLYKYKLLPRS

Target: recombinant human MAO-A (Homo sapiens, UniProt P21397)
Assay: Enzyme kinetics and mechanism of inhibition with MAO-A
Assay type: biochemical
Details: Lineweaver-Burk analysis; reversibility from dialysis

SMILES | Type of Inhibition, Monoamine oxidase-A
C#CCN(C)CCCOc1ccc(Cl)cc1Cl [Clorgyline, clorgyline, reference compound] | Mixed/Irreversible
NNCCc1ccccc1 [Phenelzine, phenelzine, reference compound] | Mixed/Irreversible
